Sequences of proteins named here, by UniProt entry; tags and fusion partners are left off. A change or cut given only in a name is not applied to a line headed by its entry.
UniProt Q9UKV0: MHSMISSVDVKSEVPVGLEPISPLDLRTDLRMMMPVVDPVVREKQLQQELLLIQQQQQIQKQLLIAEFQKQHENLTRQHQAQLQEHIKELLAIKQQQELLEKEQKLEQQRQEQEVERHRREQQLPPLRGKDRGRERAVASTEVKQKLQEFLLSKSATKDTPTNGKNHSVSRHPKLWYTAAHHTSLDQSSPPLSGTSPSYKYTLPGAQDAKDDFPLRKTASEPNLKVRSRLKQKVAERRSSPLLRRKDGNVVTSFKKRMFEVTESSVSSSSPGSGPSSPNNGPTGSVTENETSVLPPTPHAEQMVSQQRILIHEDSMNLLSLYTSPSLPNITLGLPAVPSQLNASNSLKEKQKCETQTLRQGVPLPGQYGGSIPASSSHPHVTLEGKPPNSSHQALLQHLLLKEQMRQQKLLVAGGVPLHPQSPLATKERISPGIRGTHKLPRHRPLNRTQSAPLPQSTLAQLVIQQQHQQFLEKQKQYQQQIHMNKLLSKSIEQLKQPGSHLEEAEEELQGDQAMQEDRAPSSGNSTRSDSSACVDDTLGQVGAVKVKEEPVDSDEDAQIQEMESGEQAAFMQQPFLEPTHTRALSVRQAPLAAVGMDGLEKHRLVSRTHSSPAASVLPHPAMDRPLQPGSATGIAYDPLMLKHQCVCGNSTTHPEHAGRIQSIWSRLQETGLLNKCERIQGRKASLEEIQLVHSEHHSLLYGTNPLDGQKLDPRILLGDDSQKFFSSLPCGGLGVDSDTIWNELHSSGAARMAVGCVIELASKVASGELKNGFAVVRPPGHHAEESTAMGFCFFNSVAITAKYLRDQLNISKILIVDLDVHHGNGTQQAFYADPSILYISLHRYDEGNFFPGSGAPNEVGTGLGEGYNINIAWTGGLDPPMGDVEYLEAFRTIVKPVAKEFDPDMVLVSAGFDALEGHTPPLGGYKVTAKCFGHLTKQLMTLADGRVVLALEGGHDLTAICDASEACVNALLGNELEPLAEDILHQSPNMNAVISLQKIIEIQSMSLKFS
UniProt Q9UQL6: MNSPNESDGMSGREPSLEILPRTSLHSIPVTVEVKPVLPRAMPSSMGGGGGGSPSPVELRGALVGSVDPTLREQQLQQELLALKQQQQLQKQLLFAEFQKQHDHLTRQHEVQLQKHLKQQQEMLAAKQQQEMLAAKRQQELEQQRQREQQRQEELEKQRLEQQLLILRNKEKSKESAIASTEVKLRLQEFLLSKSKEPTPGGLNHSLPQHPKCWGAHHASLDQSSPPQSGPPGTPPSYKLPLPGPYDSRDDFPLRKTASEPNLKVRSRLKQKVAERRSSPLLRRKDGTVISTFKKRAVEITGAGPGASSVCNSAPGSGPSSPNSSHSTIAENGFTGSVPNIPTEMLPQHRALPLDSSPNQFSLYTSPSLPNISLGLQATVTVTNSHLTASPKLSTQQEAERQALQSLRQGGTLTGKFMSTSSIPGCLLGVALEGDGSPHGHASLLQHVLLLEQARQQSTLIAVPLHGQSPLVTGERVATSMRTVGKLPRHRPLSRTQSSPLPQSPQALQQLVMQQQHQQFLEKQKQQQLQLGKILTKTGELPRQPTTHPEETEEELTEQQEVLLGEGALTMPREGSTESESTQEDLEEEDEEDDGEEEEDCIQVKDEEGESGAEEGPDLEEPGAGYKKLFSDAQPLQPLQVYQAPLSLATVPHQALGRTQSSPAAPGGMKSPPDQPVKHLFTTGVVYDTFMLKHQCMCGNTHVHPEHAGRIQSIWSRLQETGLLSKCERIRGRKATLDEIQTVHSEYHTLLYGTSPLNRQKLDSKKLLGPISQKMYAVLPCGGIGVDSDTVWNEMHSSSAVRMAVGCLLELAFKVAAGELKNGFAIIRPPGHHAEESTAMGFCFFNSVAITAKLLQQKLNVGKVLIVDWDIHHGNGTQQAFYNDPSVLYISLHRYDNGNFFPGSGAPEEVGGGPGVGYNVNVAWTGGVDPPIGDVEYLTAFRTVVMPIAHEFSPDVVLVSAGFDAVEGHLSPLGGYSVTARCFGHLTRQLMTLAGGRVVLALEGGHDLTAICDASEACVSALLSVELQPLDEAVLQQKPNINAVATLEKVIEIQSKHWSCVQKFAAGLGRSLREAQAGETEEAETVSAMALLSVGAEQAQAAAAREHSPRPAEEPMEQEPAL

According to ChEMBL document CHEMBL3616411, “Discovery of 1-hydroxypyridine-2-thiones as selective histone deacetylase inhibitors and their potential application for treating leukemia” (Bioorg Med Chem Lett, 2015):

Key:
Histone deacetylase 9 = Histone deacetylase 9 (Homo sapiens, UniProt Q9UKV0); assay: Inhibition of HDAC9 (unknown origin) using Boc-Lys(trifluoroacetyl)-AMC fluorogenic acetylated peptide substrate by fluorometric assay
Histone deacetylase 5 = Histone deacetylase 5 (Homo sapiens, UniProt Q9UQL6); assay: Inhibition of HDAC5 (unknown origin) using Boc-Lys(trifluoroacetyl)-AMC fluorogenic acetylated peptide substrate by fluorometric assay

For `CC(/C=C/C(=O)NO)=C\[C@@H](C)C(=O)c1ccc(N(C)C)cc1` [TRICHOSTATIN], the IC50 (Histone deacetylase 9) was 5 µM and the IC50 (Histone deacetylase 5) was 1.4 µM.
